Experiments:
His6-TEV-PPARγ-(234-505) = His6-TEV-PPARγ-(234-505) (Homo sapiens, UniProt P37231); assay: TR-FRET Assay to Measure Co-R Peptide Recruitment to PPARγ; conditions: read-out: TR-FRET i-Ag, Co-R peptide (SMRT-ID2) recruitment, top final concentration 20 μM
UM-UC-9 engineered cells = assay: Cell proliferation / short-term viability assay, CellTiter-Glo 144 h; conditions: read-out: CTGlo 144 h UMUC9.5, G150
Procedure: Cell Seeding for Proliferation Assay
UM-UC-9 engineered cells were cultured in Dulbecco's Modified Eagle Medium (DMEM) supplemented with 10% FBS, 25 mM glucose (high glucose), 4.0 mM L-glutamine, 2.0 mM GlutaMAX™, 1.0 mM pyruvate, 1.0% non-essential amino acids (NEAA) in a 95% humidified incubator at 37° C. with 5% CO2. Cell banks of UM-UC-9 engineered assay-ready cells (ARCs) were prepared from a very active growth stage. Vials of ARCs containing approximately 5×10^6 cells per vial were stored in liquid nitrogen vapor phase cryostorage until use.
For making assay plates, ARCs were recovered from cryostorage, strained in a […] cell strainer, verified for cell viability >90% and counted using a cell counter (Cellometer Auto 1000, Nexelom). Each cell line was seeded into 384-well plates (50 μl/well) using DMEM medium at a density previously determined to be in log growth phase 7 days post-seeding (500 cells/well) using a bulk reagent dispenser (Multidrop™ Combi, Thermo Scientific) with a large-bore plastic-tip cassette pre-sanitized with 70% ethanol. One plate of cells was designated as the pretreatment time-zero (T0) control. Freshly seeded plates were allowed to sit lidded for 30 minutes within a biosafety cabinet for cells to settle distributed within the plate wells uniformly and then placed into an automated incubator (STX110, Liconic) at 37° C., 5% CO2, and 95% relative humidity.
Preparation of Test Compound in Assay-Ready Plate
Compounds were stored in a low-temperature sample archive as 10 mM dimethyl sulfoxide (DMSO) solutions at −20° C. under reduced humidity (−45° C. dew point) and protected from light. All samples in the automated archive are stored in 2D barcoded polypropylene tubes, tracked through a laboratory information management system (LIMS), and have been verified for identity and purity by NMR (Chemistry, H3 Biomedicine) and by LCMS (Analytical Chemistry, H3 Biomedicine) at the time of sample registration. Identity by mass matching and purity are again verified at the time of sample request fulfillment by redundant LCMS methods (acidic and basic separation protocols; Analytical Chemistry, H3 Biomedicine). Samples retrieved from low-temperature archive storage were solubilized by heated sonication (Bransonic® Ultrasonic Bath, Branson), transferred (Microlab Starlet, Hamilton) and serially-diluted (Viaflo Assist, Integra) by low-volume liquid handlers, and tracked in LIMS by automation log files to create a ID barcoded master dose-response plate (MDR) to serve as a standard source for all assay-ready plates (ARP) used within an experiment. ARPs prepared by acoustic transfer (ATS-100, EDC) of nL volumes from the MDR source were heat-sealed (PlateLoc, Agilent) and stored at −20° C. prior to use (<7 days from production). Tracking of liquid transfers via acoustic dispenser log files were used to update the LIMS system for all ARP plate maps.
Measurement of Pretreatment Control Cells and Sample Anti-Proliferative Effects on Treated Cells
On day 0 (pretreatment cells) or day 7 (treated cells), a cell proliferation assay was performed using an automated robotic assay platform (ACell, High-Res Biosolutions). Cell ARP's were removed from incubation, their plate lid discarded, and using a bulk reagent dispenser (Multidrop™ Combi, Thermo Scientific with a small-bore metal-tip cassette) 25 μL (1/2 volume) of Cell Titer-Glo® 2.0 Cell Viability Assay reagent (Promega) was added to wells of columns 1-23 (column 24 will be used as plate background or positive control). Cell ARP's were incubated at room temperature in an automation hotel position for a total of 1.0 minute while the next plate was delivered to the bulk reagent dispenser and then lid-free cell ARP's were returned to incubate at 37° C. for 2.5 hours. […]

Amino acid sequences for entries named in this document (tags omitted). Residues count along the entry.
UniProt P37231, 234-505 limits assumed: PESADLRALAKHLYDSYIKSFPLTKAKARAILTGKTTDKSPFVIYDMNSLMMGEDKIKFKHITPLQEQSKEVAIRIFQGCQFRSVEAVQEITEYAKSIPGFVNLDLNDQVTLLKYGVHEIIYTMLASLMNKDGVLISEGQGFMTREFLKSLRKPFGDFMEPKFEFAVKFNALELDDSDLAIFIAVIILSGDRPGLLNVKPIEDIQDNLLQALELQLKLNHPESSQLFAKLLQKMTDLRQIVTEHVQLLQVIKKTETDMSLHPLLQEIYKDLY

Row | SMILES | AC50 (His6-TEV-PPARγ-(234-505)) [nM] | IC50 (UM-UC-9 engineered cells) [nM]
1 | CCN1CC(NC(=O)[C@@H]2C[C@H]3CC[C@@H](C2)N3C(=O)c2cc(-c3cc(OC)ncc3F)[nH]n2)CCC1C(F)(F)F (single isomer, unassigned) [Example 299-D] | 38.7 | 137
2 | CCN1CC(NC(=O)[C@@H]2C[C@H]3CC[C@@H](C2)N3C(=O)c2cc(-c3cc(OC)ncc3F)[nH]n2)CCC1C(F)(F)F (single isomer, unassigned) [Example 299-E] | 221 | 884
3 | CCN1CC(NC(=O)[C@@H]2C[C@H]3CC[C@@H](C2)N3C(=O)c2cc(-c3cc(OC)ncc3F)[nH]n2)CCC1C(F)(F)F (single isomer, unassigned) [Example 299-F] | 771 | 590
4 | COc1cc(-c2cc(C(=O)N3[C@@H]4CC[C@H]3C[C@H](C(=O)NC3CCC(OC)(C(F)F)CC3)C4)n[nH]2)c(F)cn1 (single isomer, unassigned) [Example 302-A] | 4.9 | 28.4
5 | COc1cc(-c2cc(C(=O)N3[C@@H]4CC[C@H]3C[C@H](C(=O)NC3CCC(OC)(C(F)F)CC3)C4)n[nH]2)c(F)cn1 (single isomer, unassigned) [Example 302-B] | 80.9 | 270
6 | CCOC1(C(F)(F)F)CCC(NC(=O)[C@@H]2C[C@H]3CC[C@@H](C2)N3C(=O)c2cc(-c3cc(OC)ncc3F)[nH]n2)CC1 (single isomer, unassigned) [Example 303-B] | 2.6 | 20.5
7 | COCCOC1(C(F)(F)F)CCC(NC(=O)[C@@H]2C[C@H]3CC[C@@H](C2)N3C(=O)c2cc(-c3cc(OC)ncc3F)[nH]n2)CC1 (single isomer, unassigned) [Example 304-A] | 8.3 | 62.9
8 | COCCOC1(C(F)(F)F)CCC(NC(=O)[C@@H]2C[C@H]3CC[C@@H](C2)N3C(=O)c2cc(-c3cc(OC)ncc3F)[nH]n2)CC1 (single isomer, unassigned) [Example 304-B] | 106 | 514
9 | COc1cc(-c2cc(C(=O)N3C4CCC3CC(C(=O)NC3CCC(C(F)(F)F)N(C)C3)C4)n[nH]2)c(F)cn1 (single isomer, unassigned) [Example 306-B] | 514 | 1040
10 | COc1cc(-c2cc(C(=O)N3C4CCC3CC(C(=O)NC3CCC(C(F)(F)F)N(C)C3)C4)n[nH]2)c(F)cn1 (single isomer, unassigned) [Example 306-C] | 58.6 | 268
11 | COc1cc(-c2cc(C(=O)N3[C@@H]4CC[C@H]3C[C@H](C(=O)NC3CCC(C(F)(F)F)N(C)C3)C4)n[nH]2)c(F)cn1 (single isomer, unassigned) [Example 306-E] | 580 | 1050
12 | COc1cc(-c2cc(C(=O)N3[C@@H]4CC[C@H]3C[C@H](C(=O)NC3CCC(C(F)(F)F)N(C)C3)C4)n[nH]2)c(F)cn1 (single isomer, unassigned) [Example 306-F] | 608 | 607
13 | Cc1cc(-c2cc(C(=O)N3[C@@H]4CC[C@H]3C[C@H](C(=O)NC3CCC(C(F)(F)F)N(C)C3)C4)n[nH]2)c(F)cn1 (single isomer, unassigned) [Example 311-A] | 106 | 414
14 | Cc1cc(-c2cc(C(=O)N3[C@@H]4CC[C@H]3C[C@H](C(=O)NC3CCC(C(F)(F)F)N(C)C3)C4)n[nH]2)c(F)cn1 (single isomer, unassigned) [Example 311-B] | 9.4 | 42.5
15 | Cc1cc(-c2cc(C(=O)N3[C@@H]4CC[C@H]3C[C@H](C(=O)NC3CCC(C(F)(F)F)N(C)C3)C4)n[nH]2)c(F)cn1 (single isomer, unassigned) [Example 311-C] | 997 | 2350
16 | Cc1cc(-c2cc(C(=O)N3[C@@H]4CC[C@H]3C[C@H](C(=O)NC3CCC(C(F)(F)F)N(C)C3)C4)n[nH]2)c(F)cn1 (single isomer, unassigned) [Example 311-D] | 32.6 | 242
17 | COc1cc(-c2cc(C(=O)N3CC[C@H](C(=O)NC4CCC(C(F)(F)F)N(C)C4)CC34CC4)n[nH]2)c(F)cn1 (single isomer, unassigned) [Example 321-A] | 2.7 | 1.7

Source: patent publication US12606541B2, “PPARg modulators and methods of use” (Eisai R&D Management Co., Ltd., priority 2020, dated 2026)
